This is a selection; strong and weak results do not stand in their true shares. Some salts or complexes appear as unconnected parts, following the source record. The source made the active and inactive calls.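 How the source made its calls: active means activation over 3 SD above normal in the single-dose calcium agonist read (cut at about 30% in these data); inactive means the rest.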
target: D(2) dopamine receptor (Homo sapiens) (UniProt P14416); assay: HTS Assay for Allosteric Agonists of the Human D2 Dopamine Receptor: Primary Screen for Agonists; settings: HEK293 T-REx D2 cells, calcium flux agonist mode; at 2 µM; active compounds read high; further: 0% is about no effect
Excerpt: NIH Chemical Genomics Center [NCGC] NIH Molecular Libraries Probe Centers Network [MLPCN] MLPCN Grant: NS064831-01 Assay Submitter (PI): David Sibley Dopamine receptors (DARs) are involved in the etiology and/or therapy of a number of neuropsychiatric and endocrine disorders. For instance, all receptor-based antiparkinsonian drugs work via stimulating the D2 DAR subtype whereas all FDA-approved antipsychotic agents are antagonists of this receptor. […] There are three different types of allosteric modulators that we are seeking, two of which will stimulate or augment receptor signaling, allosteric agonists and potentiators, while the third, allosteric antagonists, will attenuate receptor signaling. The present primary screening assay measures compound agonism by tracking calcium flux in a […], inducible Hek293 Trex D2 cell line.
Freshly passaged cells are plated in 1536 well black, clear bottom plates at a density of 4000 cells/well in 3 ul of complete media containing 1x tetracycline inducer. After an overnight incubation at […] in 5% CO2, cells are loaded with 2 ul of the no wash Calcium Assay Kit (ABD Bioquest) and incubated at room temperature for 30 to 90 minutes. Agonist read: A 10 cycle (1 second/cycle) baseline measurement is taken and then the FDSS online 1536 pintool delivers 23 nl of compound library (as well as dopamine controls) to the plate. The plate is measured for kinetically at 1 cycle/sec for 180 seconds and is considered to be the agonist portion of the assay (eg, compounds which activate a positive calcium response during this portion are flagged as potential agonists). Following the 180 second read, 1 ul of either an EC20 (positive modulation assay) or EC80 (negative modulation assay) is delivered by an onboard pipette head. Measurements are taken kinetically for an additional 180 seconds.

By UniProt entry, the sequences of proteins in these tests, tags left out.
UniProt P14416, whole entry: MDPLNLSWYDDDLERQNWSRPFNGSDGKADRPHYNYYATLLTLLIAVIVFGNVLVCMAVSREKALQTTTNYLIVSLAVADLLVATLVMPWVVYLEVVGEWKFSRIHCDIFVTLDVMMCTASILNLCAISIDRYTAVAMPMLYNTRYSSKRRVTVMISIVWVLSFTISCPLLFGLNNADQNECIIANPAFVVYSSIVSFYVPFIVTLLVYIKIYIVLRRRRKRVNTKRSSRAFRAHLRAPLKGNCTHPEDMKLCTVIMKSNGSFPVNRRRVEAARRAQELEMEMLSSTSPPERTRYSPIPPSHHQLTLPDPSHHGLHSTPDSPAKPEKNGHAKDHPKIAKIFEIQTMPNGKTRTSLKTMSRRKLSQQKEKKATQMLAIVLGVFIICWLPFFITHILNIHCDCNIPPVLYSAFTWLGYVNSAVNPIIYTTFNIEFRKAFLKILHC

| SMILES | activation |
| --- | --- |
| CN1CCC(Nc2ccc(Cl)cc2)CC1 | inactive: 0.616% |
| CCCOc1ccc(C)cc1CN(CCCl)CCCl | inactive: 0.0141% |
| COc1cc(OC)cc(C(=O)NCC2(N3CCOCC3)CCCCC2)c1 | inactive: -0.227% |
| COc1cc(C(=O)NCC2(N3CCOCC3)CCCCC2)cc(OC)c1OC | inactive: 1% |
| COc1cccc(C(=O)N(c2cc(C)cc(C)c2)C2CCN(C(=O)OC(C)(C)C)CC2)c1 | inactive: -3.78% |
| CCC(CO)(C(=O)OC1CN2CCC1CC2)c1ccccc1 (stereo not given) | inactive: -0.018% |
| O=C(O)C1(Nc2ccccc2)CCN(Cc2ccccc2)CC1 | inactive: 1.23% |
| CC(C)(C)OC(=O)N1CCC(Nc2ccccc2)CC1 | inactive: -0.629% |
| CCCOc1ccc(C(=O)NCC2(N(C)C)CCCCC2)cc1 | inactive: -0.571% |
| CN1CCC(Nc2ccc(F)c(Cl)c2)CC1 | inactive: -0.34% |
| CCOc1ncccc1C(=O)NCC1(N2CCOCC2)CCCCC1 | inactive: -0.407% |
| Cc1ccccc1C(=O)NCC1(N(C)C)CCCCC1 | inactive: 1.16% |
| CC(C)(C)c1ccc(C(=O)NCC2(N3CCOCC3)CCCCC2)cc1 | inactive: -1.35% |
| O=C(NCC1(N2CCCCC2)CCCCC1)c1ccco1 | inactive: 0.284% |
| CCN1CCC(Nc2cccc(F)c2)CC1 | inactive: 0.482% |
| Fc1ccccc1NC1CCN(Cc2ccccc2)CC1 | inactive: -0.56% |
| Cc1ccc(C(=O)NCC2(N3CCCCC3)CCCCC2)o1 | inactive: 1.89% |
| CN(C)C1(CNC(=O)c2ccc(C(C)(C)C)cc2)CCCCC1 | inactive: 0.54% |
| COc1cc(OC)cc(C(=O)NCC2(N3CCCCC3)CCCCC2)c1 | inactive: -0.841% |
| CN(C)C1(CNC(=O)c2cccc(C#N)c2)CCCCC1 | inactive: -2.02% |
| O=C(NCC1(N2CCOCC2)CCCCC1)c1ccccc1 | inactive: 2.05% |
| c1ccc(CN2CCC(Nc3ccccc3)CC2)cc1 | inactive: 0.497% |
| CCOC(=O)C(CC)C1=NC(C)(C)Cc2ccccc21.O=[N+]([O-])c1cc([N+](=O)[O-])c(O)c([N+](=O)[O-])c1 (stereo not given) | inactive: 0.0249% |
| N#Cc1ccc(C(=O)NCC2(N3CCCCC3)CCCCC2)cc1 | inactive: 0.267% |
| O=C(NCC1(N2CCOCC2)CCCCC1)c1ccccc1[N+](=O)[O-] | inactive: 0.865% |
| O=C(NCC1(N2CCOCC2)CCCCC1)c1ccc([N+](=O)[O-])cc1 | inactive: 0.46% |
| O=C(O)c1cccc(Nc2c([N+](=O)[O-])cc([N+](=O)[O-])cc2[N+](=O)[O-])c1 | inactive: -0.569% |

| SMILES | activation |
| --- | --- |
| O=C(OC1CN2CCC1CC2)C1c2ccccc2C=Cc2ccccc21 (stereo not given) | inactive: 2.14% |
| CCOC(=O)N1CCC(Nc2ccc(C)cc2)CC1 | inactive: 1.18% |
| N/C(=N\O)c1c(N)no[n+]1[O-] | inactive: -0.683% |
| COc1ccc(C(=O)NCC2(N3CCOCC3)CCCCC2)cc1OC | inactive: 0.256% |
| O=C(NCC1(N2CCOCC2)CCCCC1)c1cc(Br)ccc1Cl | inactive: -0.158% |
| CCCOc1ccc(C(=O)NCC2(N(C)C)CCCCC2)cc1OC | inactive: -3.36% |
| O=C(NCC1(N2CCOCC2)CCCCC1)c1ccccc1Br | inactive: -0.216% |
| CCCCOc1ccccc1C(=O)NCC1(N2CCOCC2)CCCCC1 | inactive: -1.05% |
| O=C(OC1CN2CCC1CC2)c1ccc([N+](=O)[O-])cc1 (stereo not given) | inactive: -2.52% |
| COc1ccc2c(c1O)-c1c(O)c(OC)cc3c1[C@H](C2)[N+](C)(C)CC3.O=[N+]([O-])c1cc([N+](=O)[O-])c([O-])c([N+](=O)[O-])c1[O-] | inactive: 0.418% |
| O=C(NCC1(N2CCCCC2)CCCCC1)c1cncc(Br)c1 | inactive: 0.551% |
| COc1cc(OC)c(C(=O)NCC2(N(C)C)CCCCC2)cc1OC | inactive: 1.43% |
| CC(C)c1ccc(NC2CCN(C(=O)OC(C)(C)C)CC2)cc1 | inactive: -2.87% |
| O=[N+]([O-])c1cc([N+](=O)[O-])c(OC2CCCCC2O)c([N+](=O)[O-])c1 (stereo not given) | inactive: 0.0685% |
| CN(C)c1cccc(C(=O)NCC2(N3CCCCC3)CCCCC2)c1 | inactive: -0.381% |
| COc1ccc(CN(CCCl)CCCl)cc1Cl | inactive: -0.213% |
| COc1cc(C(=O)NCC2(N3CCCCC3)CCCCC2)ccc1OC(F)F | inactive: 0.598% |
| O=C(NCC1(N2CCOCC2)CCCCC1)c1cc(=O)[nH]c2ccccc12 | inactive: 0.456% |
| CN1CCN(CCOC(=O)C(O)(c2ccccc2)c2ccccc2)CC1 | inactive: 0.421% |
| CC(C)c1ccc(C(=O)NCC2(N3CCOCC3)CCCCC2)cc1 | inactive: -3.35% |
| COc1ccc(NC2CCN(C(=O)OC(C)(C)C)CC2)cc1 | inactive: 1.42% |
| O=[N+]([O-])c1cc([N+](=O)[O-])c(NCC2CCS(=O)(=O)C2)c([N+](=O)[O-])c1 (stereo not given) | inactive: -2.17% |
| CCCOc1cccc(C(=O)NCC2(N3CCOCC3)CCCCC2)c1 | inactive: -2% |
| O=C(NCC1(N2CCCCC2)CCCCC1)c1cccc(C(F)(F)F)c1 | inactive: -0.69% |
| N#CC1(Nc2ccccc2)CCN(CCc2ccccc2)CC1 | inactive: 0.423% |
| CCN1CCC(Nc2ccc(Cl)cc2)CC1 | inactive: 15.9% |
| O=C(NCC1(N2CCCCC2)CCCCC1)c1cccc([N+](=O)[O-])c1 | inactive: -0.543% |

| SMILES | activation |
| --- | --- |
| CCOc1ccc(C(=O)NCC2(N3CCOCC3)CCCCC2)cc1 | inactive: 1.81% |
| CSc1ccc(C(=O)NCC2(N3CCOCC3)CCCCC2)cc1 | inactive: 0.672% |
| O=C(NCC1(N2CCCCC2)CCCCC1)c1ccc(OC(F)F)cc1 | inactive: 0.354% |
| Cc1ccc(OCC(C)C)c(CN(CCCl)CCCl)c1 | inactive: 1.32% |
| COc1cc(C(=O)NCC2(N(C)C)CCCCC2)ccc1OC(F)F | inactive: 0.233% |
| CCOC(=O)N1CCC(Nc2cccc(C)c2)CC1 | inactive: -1.21% |
| COc1ccccc1C(=O)NCC1(N2CCOCC2)CCCCC1 | inactive: 0.513% |
| COc1ccc(NC2CCN(CCc3ccccc3)CC2)c(OC)c1 | inactive: 1.33% |
| CCOC(=O)N1CCC(Nc2ccc(F)cc2)CC1 | inactive: -1.27% |
| O=C(NCC1(N2CCCCC2)CCCCC1)c1ccc(F)cc1 | inactive: 7.04% |
| O=C(NCC1(N2CCOCC2)CCCCC1)c1ccc(Cl)cc1 | inactive: -1.92% |
| CCOc1ccc(C)cc1CN(CCCl)CCCl | inactive: 0.45% |
| COc1ccc(Cl)cc1C(=O)NCC1(N2CCOCC2)CCCCC1 | inactive: -0.0712% |
| O=C(OC1CN2CCC1CC2)C1c2ccccc2Oc2ccccc21 (stereo not given) | inactive: 1% |
| O=C(NCC1(N2CCCCC2)CCCCC1)c1ccc(Cl)s1 | inactive: 0.12% |
| N#CC1(Nc2ccccc2)CCN(Cc2ccccc2)CC1 | inactive: 0.376% |
| CCOC(=O)N1CCC(Nc2ccc(OC)cc2)CC1 | inactive: -0.473% |
| Cc1cc(C)cc(N(C(=O)c2ccccc2)C2CCN(C(=O)OC(C)(C)C)CC2)c1 | inactive: -3.88% |
| O=C(NCC1(N2CCCCC2)CCCCC1)c1ccc(Cl)nc1 | inactive: -0.0807% |
| O=C(NCC1(N2CCOCC2)CCCCC1)c1cc2ccccc2o1 | inactive: 0.2% |
| CSc1ccccc1C(=O)NCC1(N2CCCCC2)CCCCC1 | inactive: -2.66% |
| CC(C)(C)OC(=O)N1CCC(N(C(=O)c2ccccc2)c2ccc(F)cc2)CC1 | inactive: -0.0529% |
| COc1ccc(C(=O)NCC2(N3CCCCC3)CCCCC2)c(OC)c1OC | inactive: -1.15% |
| COc1ccc(C(=O)NCC2(N3CCCCC3)CCCCC2)cc1 | inactive: -1.65% |
| O=C(NCC1(N2CCCCC2)CCCCC1)c1cccs1 | inactive: 0.112% |
| O=C(NCC1(N2CCCCC2)CCCCC1)c1ccc(=O)[nH]c1 | inactive: 2.45% |
